Measured values published in PubChem BioAssay AID588493 (Sanford-Burnham Center for Chemical Genomics, 2011).
The entries are a selection whose mix differs from that of the whole data set. Calls of active or inactive are those of the source.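 How the source made its calls: active means inhibition at 20 µM, scaled to each plate's controls, above about 33% (limit read from the data); inactive means the rest.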

Sequences of proteins named here, by UniProt entry; tags and fusion partners are left off.
UniProt O00487, whole entry: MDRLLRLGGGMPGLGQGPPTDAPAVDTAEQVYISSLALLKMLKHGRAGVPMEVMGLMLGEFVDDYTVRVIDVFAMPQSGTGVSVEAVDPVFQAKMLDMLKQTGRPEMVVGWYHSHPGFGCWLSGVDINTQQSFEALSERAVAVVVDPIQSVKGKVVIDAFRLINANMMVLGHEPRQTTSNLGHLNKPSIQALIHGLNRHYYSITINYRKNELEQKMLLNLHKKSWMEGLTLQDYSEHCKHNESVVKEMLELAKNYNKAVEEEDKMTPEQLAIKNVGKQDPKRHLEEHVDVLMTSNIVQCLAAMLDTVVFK

target: 26S proteasome non-ATPase regulatory subunit 14 (Homo sapiens) (UniProt O00487); assay: inhibition of 26S proteasome subunit Rpn11 – biochemical, fluorescence polarization, uHTS, primary screen (AID 588493); settings: human 26S proteasome, Ub4-pepOG fluorescence polarization; at 20 µM; hits give high values; 20S core pre-blocked with epoxomicin

Row | Compound | inhibition
1 | CC(C)(C)n1nnnc1C(c1ccccc1OC(F)(F)F)N1CCC(n2c(=O)[nH]c3ccccc32)CC1 (configuration not stated) | inactive: 4.1%
2 | O=C(NCC1(N2CCCCC2)CCCCC1)c1ccc(OC(F)F)cc1 | inactive: 6.5%
3 | CCN1CCC(Nc2ccc(Cl)cc2)CC1 | inactive: 0.1%
4 | N#CC1(Nc2ccccc2)CCN(CCc2ccccc2)CC1 | inactive: 2%
5 | O=c1[nH]c2ccccc2n1C1CCN(C(c2ccccc2OC(F)(F)F)c2nnnn2C2CCCC2)CC1 (configuration not stated) | inactive: 8.1%
6 | O=C(NCC1(N2CCCCC2)CCCCC1)c1cccc([N+](=O)[O-])c1 | inactive: 0.8%
7 | CSc1ccc(C(=O)NCC2(N3CCOCC3)CCCCC2)cc1 | inactive: 2.9%
8 | O=C(NCC1(N2CCCCC2)CCCCC1)c1cccc(C(F)(F)F)c1 | inactive: 5.2%
9 | COc1cc(C(=O)NCC2(N3CCCCC3)CCCCC2)ccc1OC(F)F | inactive: 13.2%
10 | O=C(NCC1(N2CCOCC2)CCCCC1)c1cc(=O)[nH]c2ccccc12 | inactive: -2.4%
11 | CCCCn1nnnc1C(c1cccc2ccccc12)N1CCC(n2c(=O)[nH]c3ccccc32)CC1 (configuration not stated) | inactive: 11.8%
12 | CN1CCN(CCOC(=O)C(O)(c2ccccc2)c2ccccc2)CC1 | inactive: -12.6%
13 | COc1ccc(NC2CCN(C(=O)OC(C)(C)C)CC2)cc1 | inactive: 1.5%
14 | CC(C)c1ccc(C(=O)NCC2(N3CCOCC3)CCCCC2)cc1 | inactive: 0.1%
15 | CCCCn1nnnc1C(c1ccccc1OC(F)(F)F)N1CCC(n2c(=O)[nH]c3ccccc32)CC1 (configuration not stated) | inactive: 0.4%
16 | CC(C)c1ccc(NC2CCN(C(=O)OC(C)(C)C)CC2)cc1 | inactive: 1.1%
17 | COc1ccc(CN(CCCl)CCCl)cc1Cl | inactive: 0.6%
18 | CN(C)c1cccc(C(=O)NCC2(N3CCCCC3)CCCCC2)c1 | inactive: -2.2%
19 | COc1cc(OC)c(C(=O)NCC2(N(C)C)CCCCC2)cc1OC | inactive: 3.8%
20 | CCC(c1nnnn1C(C)(C)C)N1CCC(n2c(=O)[nH]c3ccccc32)CC1 (configuration not stated) | inactive: 5.9%
21 | O=C(NCC1(N2CCOCC2)CCCCC1)c1cc(F)c(F)cc1Cl | inactive: 3.4%
22 | CCCCn1nnnc1C(c1ccnc2ccccc12)N1CCC(n2c(=O)[nH]c3ccccc32)CC1 (configuration not stated) | inactive: 4.8%

Row | Compound | inhibition
23 | O=C(NCC1(N2CCCCC2)CCCCC1)c1cncc(Br)c1 | inactive: -3%
24 | CN1CCC(Nc2cccc(F)c2)CC1 | inactive: -5%
25 | COc1ccc(C(c2nnnn2C2CCCC2)N2CCC(n3c(=O)[nH]c4ccccc43)CC2)cc1 (configuration not stated) | inactive: 6.2%
26 | Cc1ccc(C(=O)NCC2(N(C)C)CCCCC2)o1 | inactive: 1.2%
27 | CCCOc1ccc(C(=O)NCC2(N(C)C)CCCCC2)cc1OC | inactive: -4.2%
28 | COc1ccc(C(=O)NCC2(N3CCCCC3)CCCCC2)cc1 | inactive: 4.4%
29 | CCC(c1nnnn1C1CCCC1)N1CCC(n2c(=O)[nH]c3ccccc32)CC1 (configuration not stated) | inactive: 10.9%
30 | COc1ccc(C(=O)NCC2(N3CCCCC3)CCCCC2)c(OC)c1OC | inactive: -5.6%
31 | CC(C)(C)OC(=O)N1CCC(N(C(=O)c2ccccc2)c2ccc(F)cc2)CC1 | inactive: -11.7%
32 | O=C(NCC1(N2CCCCC2)CCCCC1)c1ccc(=O)[nH]c1 | inactive: -3.7%
33 | CCCCn1nnnc1C(c1cccs1)N1CCC(n2c(=O)[nH]c3ccccc32)CC1 (configuration not stated) | inactive: 0.9%
34 | CCCCn1nnnc1C(CC)N1CCC(n2c(=O)[nH]c3ccccc32)CC1 (configuration not stated) | inactive: 4.5%
35 | O=C(NCC1(N2CCCCC2)CCCCC1)c1cccs1 | inactive: 2.9%
36 | CSc1ccccc1C(=O)NCC1(N2CCCCC2)CCCCC1 | inactive: 9.9%
37 | Cc1cccc(NC2(C#N)CCN(Cc3ccccc3)CC2)c1 | inactive: -2.9%
38 | O=c1[nH]c2ccccc2n1C1CCN(C(c2ccccc2OC(F)(F)F)c2nnnn2C2CCCCC2)CC1 (configuration not stated) | inactive: 15.6%
39 | O=C(NCC1(N2CCCCC2)CCCCC1)c1ccc(Cl)nc1 | inactive: -1.5%
40 | Cc1cc(C)cc(N(C(=O)c2ccccc2)C2CCN(C(=O)OC(C)(C)C)CC2)c1 | inactive: -7.9%
41 | O=C(NCC1(N2CCOCC2)CCCCC1)c1cc2ccccc2o1 | inactive: 10.5%
42 | O=C(OC1CN2CCC1CC2)C1c2ccccc2Oc2ccccc21 (configuration not stated) | inactive: -28.8%
43 | O=c1[nH]c2ccccc2n1C1CCN(C(c2cc3ccccc3o2)c2nnnn2C2CCCCC2)CC1 (configuration not stated) | inactive: 9.6%
44 | O=C(NCC1(N2CCCCC2)CCCCC1)c1ccc(Cl)s1 | inactive: 4.2%

Row | Compound | inhibition
45 | N#CC1(Nc2ccccc2)CCN(Cc2ccccc2)CC1 | inactive: 2.1%
46 | COc1ccc(Cl)cc1C(=O)NCC1(N2CCOCC2)CCCCC1 | inactive: 2.2%
47 | CCOC(=O)N1CCC(Nc2ccc(OC)cc2)CC1 | inactive: -1.6%
48 | CCCCn1nnnc1C(c1ccc(OC)cc1)N1CCC(n2c(=O)[nH]c3ccccc32)CC1 (configuration not stated) | inactive: -1.9%
49 | CC(C)(C)n1nnnc1C(c1ccccc1)N1CCC(n2c(=O)[nH]c3ccccc32)CC1 (configuration not stated) | inactive: 6.9%
50 | O=C1CCN(Cc2ccccc2)CC1 | inactive: 10.1%
51 | CCOc1ccc(C)cc1CN(CCCl)CCCl | inactive: -3.4%
52 | O=C(NCC1(N2CCCCC2)CCCCC1)c1ccc(F)cc1 | inactive: -5.8%
53 | CCCCn1nnnc1C(c1cc2ccccc2o1)N1CCC(n2c(=O)[nH]c3ccccc32)CC1 (configuration not stated) | inactive: 16.1%
54 | O=P1(N(CCCl)CCCl)SCCCS1 | inactive: -4.7%
55 | CCCCOc1ccc(C(=O)NCC2(N3CCOCC3)CCCCC2)cc1 | inactive: -1.6%
56 | COc1ccc(NC2CCN(CCc3ccccc3)CC2)c(OC)c1 | inactive: 8%
57 | CCOC(=O)N1CCC(Nc2ccc(F)cc2)CC1 | inactive: -1.7%
58 | O=c1[nH]c2ccccc2n1C1CCN(C(c2ccccc2)c2nnnn2C2CCCCC2)CC1 (configuration not stated) | inactive: 15.3%
59 | COc1cc(C(=O)NCC2(N(C)C)CCCCC2)ccc1OC(F)F | inactive: 3.6%
60 | CCOC(=O)N1CCC(Nc2cccc(C)c2)CC1 | inactive: -5.8%
61 | O=c1[nH]c2ccccc2n1C1CCN(C(c2cccc3ccccc23)c2nnnn2C2CCCC2)CC1 (configuration not stated) | inactive: 3.7%
62 | CC(=O)N(c1ccccc1)C1CCNCC1 | inactive: 3%
63 | COc1cccc(C(c2nnnn2C2CCCCC2)N2CCC(n3c(=O)[nH]c4ccccc43)CC2)c1OC (configuration not stated) | inactive: 9.4%
64 | CCC(c1nnnn1C1CCCCC1)N1CCC(n2c(=O)[nH]c3ccccc32)CC1 (configuration not stated) | inactive: -5.4%
65 | O=c1[nH]c2ccccc2n1C1CCN(C(c2ccnc3ccccc23)c2nnnn2C2CCCCC2)CC1 (configuration not stated) | inactive: 6.2%
66 | COc1cc(OC)cc(C(=O)NCC2(N3CCCCC3)CCCCC2)c1 | inactive: -1.2%

Row | Compound | inhibition
67 | Cc1ccc(C(=O)NCC2(N3CCCCC3)CCCCC2)o1 | inactive: 5.2%
68 | Fc1ccccc1NC1CCN(Cc2ccccc2)CC1 | inactive: 3.5%
69 | Cc1ccc(NC2(C#N)CCN(Cc3ccccc3)CC2)cc1 | inactive: 3.4%
70 | Cc1ccccc1NC1(C#N)CCN(Cc2ccccc2)CC1 | inactive: -3.6%
71 | CC(C)(C)n1nnnc1C(c1ccnc2ccccc12)N1CCC(n2c(=O)[nH]c3ccccc32)CC1 (configuration not stated) | inactive: -6.4%
72 | COc1ccc(C(c2nnnn2C2CCCCC2)N2CCC(n3c(=O)[nH]c4ccccc43)CC2)cc1 (configuration not stated) | inactive: 8.9%
73 | CCN1CCC(Nc2cccc(F)c2)CC1 | inactive: -6.9%
74 | O=C(NCC1(N2CCCCC2)CCCCC1)c1ccco1 | inactive: 4.2%
75 | Cn1c(=O)[nH]cc(N(CCCl)CCCl)c1=O | inactive: 0.4%
76 | CN(C)c1ccc(C(=O)NCC2(N3CCCCC3)CCCCC2)cc1 | inactive: 4.2%
77 | CCOc1ncccc1C(=O)NCC1(N2CCOCC2)CCCCC1 | inactive: -0.5%
78 | CN1CCC(Nc2ccc(F)c(Cl)c2)CC1 | inactive: -1.7%
79 | CC(C)(C)OC(=O)N1CCC(Nc2ccccc2)CC1 | inactive: -10.7%
80 | O=C(O)C1(Nc2ccccc2)CCN(Cc2ccccc2)CC1 | inactive: -1.8%
81 | CCCOc1ccc(C(=O)NCC2(N(C)C)CCCCC2)cc1 | inactive: -2.9%
82 | O=c1[nH]c2ccccc2n1C1CCN(C(c2cc3ccccc3o2)c2nnnn2C2CCCC2)CC1 (configuration not stated) | inactive: 7.6%
83 | COc1cc(OC)cc(C(=O)NCC2(N3CCOCC3)CCCCC2)c1 | inactive: -3%
84 | COc1cccc(C(c2nnnn2C2CCCC2)N2CCC(n3c(=O)[nH]c4ccccc43)CC2)c1OC (configuration not stated) | inactive: 3.8%
85 | COc1cccc(C(=O)N(c2cc(C)cc(C)c2)C2CCN(C(=O)OC(C)(C)C)CC2)c1 | inactive: -2.1%
86 | CCC(CO)(C(=O)OC1CN2CCC1CC2)c1ccccc1 (configuration not stated) | inactive: 1.5%
87 | CN1CCC(Nc2ccc(Cl)cc2)CC1 | inactive: -5.4%
88 | CCCCn1nnnc1C(c1ccccc1)N1CCC(n2c(=O)[nH]c3ccccc32)CC1 (configuration not stated) | inactive: 11.1%

Row | Compound | inhibition
89 | COc1cc(C(=O)NCC2(N3CCOCC3)CCCCC2)cc(OC)c1C | inactive: 1.3%
90 | O=C(NCC1(N2CCOCC2)CCCCC1)c1cc(Br)ccc1Cl | inactive: -1.2%
91 | O=c1[nH]c2ccccc2n1C1CCN(C(c2cccs2)c2nnnn2C2CCCCC2)CC1 (configuration not stated) | inactive: 14.2%
92 | COc1ccc(C(=O)NCC2(N3CCOCC3)CCCCC2)cc1OC | inactive: -4.3%
93 | O=c1[nH]c2ccccc2n1C1CCN(C(c2ccnc3ccccc23)c2nnnn2C2CCCC2)CC1 (configuration not stated) | inactive: 5.3%
94 | COc1cccc(C(c2nnnn2C(C)(C)C)N2CCC(n3c(=O)[nH]c4ccccc43)CC2)c1OC (configuration not stated) | inactive: -8.7%
95 | CCOC(=O)N1CCC(Nc2ccc(C)cc2)CC1 | inactive: -5.5%
96 | N/C(=N\O)c1c(N)no[n+]1[O-] | inactive: -5%
97 | O=C(OC1CN2CCC1CC2)C1c2ccccc2C=Cc2ccccc21 (configuration not stated) | inactive: 1.6%
98 | O=c1[nH]c2ccccc2n1C1CCN(C(c2cccs2)c2nnnn2C2CCCC2)CC1 (configuration not stated) | inactive: 8.4%
99 | CCCCn1nnnc1C(c1cccc(OC)c1OC)N1CCC(n2c(=O)[nH]c3ccccc32)CC1 (configuration not stated) | inactive: 5.3%
100 | N#Cc1ccc(C(=O)NCC2(N3CCCCC3)CCCCC2)cc1 | inactive: -6.4%
101 | CC(C)(C)OC(=O)N1CCC(N(C(=O)c2ccccc2)c2ccc(Cl)cc2)CC1 | inactive: 2.8%
102 | CN(C)C1(CNC(=O)c2cccc(C#N)c2)CCCCC1 | inactive: -6.7%
103 | c1ccc(CN2CCC(Nc3ccccc3)CC2)cc1 | inactive: 1%
104 | O=c1[nH]c2ccccc2n1C1CCN(C(c2ccccc2)c2nnnn2C2CCCC2)CC1 (configuration not stated) | inactive: 4.4%
105 | CCCN1CCC(Nc2cc(OC)cc(OC)c2)CC1 | inactive: -23.7%
106 | Cc1cc(N(CCCl)CCCl)ccc1C=O | inactive: -2.3%
107 | CC(C)(C)n1nnnc1C(c1cccc2ccccc12)N1CCC(n2c(=O)[nH]c3ccccc32)CC1 (configuration not stated) | inactive: 3.6%
